Experimental data: patent publication US11771634B2, “Antimicrobial antifungal composition” (GODREJ INDUSTRIES LIMITED, priority 2021, dated 2023)

Tested on: zein (corn protein)

Undecylenamidopropyl PG-Dimonium Chloride Phosphate & Sophorolipid (50:50 w/w ratio) [UDAP PB + Sophorolipid (50:50 w/w)]
Zein Number (ZN): 9.35 mg N/100 mL
